Experiment [1] addresses T1, Kappa-type opioid receptor (Homo sapiens, UniProt P41145). Kind of experiment: Agonist activity at human kappa opioid receptor expressed in CHO membrane by [35S]GTP-gamma-S binding assay.
Experiment [2] addresses T2, Delta-type opioid receptor (Homo sapiens, UniProt P41143). Kind of experiment: Agonist activity at human delta opioid receptor expressed in CHO membrane by [35S]GTPgammaS binding assay. In general terms: GTPγS is a poorly hydrolysed GTP analogue; its binding reports G protein activation.
Experiment [3] concerns the target T1, Kappa-type opioid receptor. The experiment in a line: Displacement of [3H]U-69593 from cloned kappa opioid receptor expressed in CHO cell membrane.
In experiment [4] the target is T2, Delta-type opioid receptor. Kind of experiment: Displacement of [3H]DPDPE from cloned delta opioid receptor expressed in CHO cell membrane. For orientation: In a radioligand displacement assay an active substance lowers the binding of a labelled ligand.

By UniProt entry, the sequences of proteins in these tests, tags left out.
UniProt P41145, whole entry: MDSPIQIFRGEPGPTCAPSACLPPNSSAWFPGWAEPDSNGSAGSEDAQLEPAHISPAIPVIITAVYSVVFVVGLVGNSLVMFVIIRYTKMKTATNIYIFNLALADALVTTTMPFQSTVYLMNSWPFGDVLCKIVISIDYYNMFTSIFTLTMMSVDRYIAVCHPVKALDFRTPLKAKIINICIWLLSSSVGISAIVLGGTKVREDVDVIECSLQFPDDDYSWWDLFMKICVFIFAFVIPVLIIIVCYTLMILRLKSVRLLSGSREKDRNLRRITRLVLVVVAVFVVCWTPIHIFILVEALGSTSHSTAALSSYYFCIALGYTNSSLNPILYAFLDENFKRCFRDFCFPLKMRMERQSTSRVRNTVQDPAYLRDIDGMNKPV
UniProt P41143, whole entry: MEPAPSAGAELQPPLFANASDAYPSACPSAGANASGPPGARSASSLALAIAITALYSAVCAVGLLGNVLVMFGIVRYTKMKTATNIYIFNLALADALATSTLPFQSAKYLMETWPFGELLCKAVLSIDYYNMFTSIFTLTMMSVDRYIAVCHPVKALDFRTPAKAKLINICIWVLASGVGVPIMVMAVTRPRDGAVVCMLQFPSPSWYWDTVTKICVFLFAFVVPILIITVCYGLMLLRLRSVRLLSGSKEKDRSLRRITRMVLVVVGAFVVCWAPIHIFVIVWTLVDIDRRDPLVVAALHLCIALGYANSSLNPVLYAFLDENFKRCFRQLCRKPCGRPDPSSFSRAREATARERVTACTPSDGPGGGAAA

In general, EC50 refers to the midpoint of the concentration-response curve. High values mean a need for much substance, low ones an effect from little substance. In general, Ki refers to a measure of affinity in units of concentration, obtained from inhibition or displacement. A higher Ki goes with a looser hold on the target. Consider `CO[C@]12CC(O)[C@@]3(C[C@@H]1[C@@H](C)O)[C@H]1Cc4ccc(O)c5c4[C@@]3(CCN1C)[C@H]2O5` (stereo partly specified), for which the results for the EC50 in experiment [1] and in experiment [2] were 0.72 µM and 0.057 µM, respectively. Besides, the Ki in experiment [3] was 0.23 µM; in experiment [4], 0.12 µM.

`CO[C@]12CC(O)[C@@]3(C[C@@H]1[C@H](C)O)[C@H]1Cc4ccc(O)c5c4[C@@]3(CCN1C)[C@H]2O5` (stereo partly specified): the EC50 worked out at 0.52 µM in experiment [1] and 0.21 µM in experiment [2]. The Ki in experiment [3] is 0.17 µM; in experiment [4], 0.11 µM.

Regarding `CO[C@]12C(O)C[C@@]3(C[C@@H]1[C@H](C)O)[C@H]1Cc4ccc(O)c5c4[C@@]3(CCN1C)[C@H]2O5` (stereo partly specified), the EC50 in experiment [1] turned out to be 0.21 µM; in experiment [2], 0.021 µM. The Ki in experiment [3] came to 0.064 µM; in experiment [4], 0.028 µM.

Consider `CO[C@]12C(O)C[C@@]3(C[C@@H]1[C@@H](C)O)[C@H]1Cc4ccc(O)c5c4[C@@]3(CCN1C)[C@H]2O5` (stereo partly specified), for which the EC50 was determined as 0.24 µM in experiment [1] and 0.088 µM in experiment [2]. Further, the Ki in experiment [3] came to 0.026 µM; in experiment [4] it was 0.025 µM.
